Permeability data for macrocyclic peptides

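The data file gives no further conditions (lipid, pH, time, direction or concentration), and values from different papers need not be comparable. The list need not hold all peptides of the study. Peptides that the database sets to -10, its floor, are left out.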

PAMPA measures passive passage through an artificial lipid membrane. P is given in units of 10^-6 cm/s (from log10 values with two decimals); larger means faster passage.

- CC(C)C[C@@H]1C(=O)N(C)[C@H](CC(C)C)C(=O)N2CCC[C@@H]2C(=O)N(C)[C@H](CC(C)C)C(=O)N[C@@H](Cc2ccccc2)C(=O)N2CCC[C@H]2C(=O)N[C@@H](Cc2ccccc2)CC(=O)N1C: PAMPA 5.5 × 10^-6 cm/s
- CC(C)C[C@@H]1C(=O)N[C@@H](Cc2ccccc2)C(=O)N[C@H](C)C(=O)N[C@H](CC(C)C)C(=O)N(Cc2ccccc2)CC(=O)N2CCC[C@H]2C(=O)N1C: PAMPA 0.46 × 10^-6 cm/s
- CC(C)C[C@@H]1NC(=O)[C@@H](CC(C)C)NC(=O)[C@H](C)N(C)C(=O)[C@H](Cc2ccccc2)NC(=O)[C@@H](CC(C)C)N(C)C(=O)[C@@H]2CCCN2C1=O: PAMPA 7.4 × 10^-6 cm/s
- CCCN1CC(=O)N[C@@H](CC(C)C)C(=O)N(C)[C@@H](CC(C)C)C(=O)N2CCC[C@H]2C(=O)N(C)[C@@H](CC(C)C)C(=O)N[C@@H](Cc2ccccc2)C(=O)N2CCC[C@@H]2C1=O: PAMPA 9.5 × 10^-6 cm/s
- CC(C)C[C@@H]1C(=O)N(C)[C@@H](CC(C)C)C(=O)N2CCC[C@H]2C(=O)N[C@H](CC(C)C)C(=O)N[C@@H](Cc2ccccc2)C(=O)N2CCC[C@H]2C(=O)N[C@@H](C)C(=O)N1C: PAMPA 1.7 × 10^-6 cm/s
- CCCN1CC(=O)N[C@@H](CC(C)C)C(=O)N(C)[C@H](CC(C)C)C(=O)N2CCC[C@@H]2C(=O)N(C)[C@H](CC(C)C)C(=O)N[C@@H](Cc2ccccc2)C(=O)N2CCC[C@@H]2C1=O: PAMPA 3.2 × 10^-6 cm/s
- CCCN1CC(=O)N[C@@H](CC(C)C)C(=O)N(C)[C@H](CC(C)C)C(=O)N2CCC[C@@H]2C(=O)N(C)[C@@H](CC(C)C)C(=O)N[C@@H](Cc2ccccc2)C(=O)N2CCC[C@H]2C1=O: PAMPA 1.9 × 10^-6 cm/s
- CC(C)C[C@H]1C(=O)N[C@@H](Cc2ccccc2)CC(=O)N2CCC[C@H]2C(=O)N(C)[C@@H](CC(C)C)C(=O)N[C@@H](Cc2ccccc2)C(=O)N2CCC[C@@H]2C(=O)N[C@@H](Cc2ccccc2)CC(=O)N1C: PAMPA 5.9 × 10^-6 cm/s
- CC(C)C[C@@H]1NC(=O)[C@H](CC(C)C)N(C)C(=O)[C@H](C)N(C)C(=O)[C@H](Cc2ccccc2)NC(=O)[C@@H](CC(C)C)NC(=O)[C@H]2CCCN2C1=O: PAMPA 4.6 × 10^-6 cm/s
- CC(C)C[C@@H]1NC(=O)[C@@H](C)NC(=O)[C@H](Cc2ccccc2)NC(=O)[C@@H](CC(C)C)NC(=O)[C@@H]2CCCN2C(=O)[C@@H](CC(C)C)N(C)C1=O: PAMPA 1.4 × 10^-6 cm/s
- CC(C)C[C@@H]1NC(=O)[C@@H]2CCCN2C(=O)[C@H](CC(C)C)NC(=O)CN(Cc2ccccc2)C(=O)[C@H](C)NC(=O)[C@H](Cc2ccccc2)NC1=O: PAMPA 0.89 × 10^-6 cm/s
- CC(C)C[C@@H]1C(=O)N(Cc2ccccc2)CC(=O)N2CCC[C@H]2C(=O)N(C)[C@@H](CC(C)C)C(=O)N[C@@H](Cc2ccccc2)C(=O)N2CCC[C@@H]2C(=O)N[C@H](C)C(=O)N1C: PAMPA 1.5 × 10^-6 cm/s
- CC(C)C[C@@H]1NC(=O)[C@@H](C)N(C)C(=O)[C@@H]2CCCN2C(=O)[C@H](Cc2ccccc2)NC(=O)[C@H](CC(C)C)N(C)C(=O)[C@H]2CCCN2C(=O)CN(Cc2ccccc2)C1=O: PAMPA 2 × 10^-6 cm/s
- CC(C)C[C@H]1NC(=O)[C@H]2CCCN2C(=O)[C@@H](CC(C)C)NC(=O)CN(Cc2ccccc2)C(=O)[C@@H](C)N(C)C(=O)[C@H](Cc2ccccc2)NC1=O: PAMPA 0.91 × 10^-6 cm/s
- CC(C)C[C@@H]1NC(=O)C[C@H](Cc2ccccc2)NC(=O)[C@H](Cc2ccccc2)NC(=O)CN(Cc2ccccc2)C(=O)[C@@H]2CCCN2C(=O)[C@H](CC(C)C)NC1=O: PAMPA 1.2 × 10^-6 cm/s
- CC(C)C[C@@H]1NC(=O)CN(Cc2ccccc2)C(=O)C[C@H](Cc2ccccc2)NC(=O)[C@@H]2CCCN2C(=O)[C@H](Cc2ccccc2)NC(=O)[C@@H](CC(C)C)NC(=O)[C@@H]2CCCN2C1=O: PAMPA 0.95 × 10^-6 cm/s
- CC(C)C[C@@H]1NC(=O)C[C@H](Cc2ccccc2)NC(=O)[C@@H]2CCCN2C(=O)[C@H](Cc2ccccc2)NC(=O)CN(Cc2ccccc2)C(=O)[C@@H]2CCCN2C(=O)[C@H](CC(C)C)NC1=O: PAMPA 1.7 × 10^-6 cm/s

Excerpt, the final 2 entries:

compound	PAMPA (10^-6 cm/s)
CC(C)C[C@@H]1NC(=O)CN(Cc2ccccc2)C(=O)C[C@H](Cc2ccccc2)NC(=O)[C@@H]2CCCN2C(=O)[C@H](Cc2ccccc2)NC(=O)[C@@H](CC(C)C)NC(=O)[C@@H]2CCCN2C1=O	0.95
CC(C)C[C@@H]1NC(=O)C[C@H](Cc2ccccc2)NC(=O)[C@@H]2CCCN2C(=O)[C@H](Cc2ccccc2)NC(=O)CN(Cc2ccccc2)C(=O)[C@@H]2CCCN2C(=O)[C@H](CC(C)C)NC1=O	1.7

Source: CycPeptMPDB (Li et al. 2023), which took these values from Townsend et al. 2020, doi:10.26434/chemrxiv.13335941.v1.